Values of other authors as cited in patent US11975105B2 (EMPROS PHARMA AB, priority 2014, dated 2024).
Where two headings read alike, the source gives them in different places.

Details: cited from earlier work

C[C@H]1O[C@H](O[C@H]2[C@H](O)[C@@H](O)[C@@H](O[C@H]3[C@H](O)[C@@H](O)C(O)O[C@@H]3CO)O[C@@H]2CO)[C@H](O)[C@@H](O)[C@@H]1N[C@H]1C=C(CO)[C@@H](O)[C@H](O)[C@H]1O (stereo partly drawn) [acarbose, O-4,6-Dideoxy-4-[[(1 S,4R,5S,6S)-4,5,6-trihydroxy-3-(hydroxymethyl)cyclohex-2-enyl]amino]-α-D-glucopyranosyl-(1→4)-O-α-D-gluco-pyranosyl-(1→4)-D-glucopyranose]
fraction of the dose absorbed (in vivo, po): < 5% | fraction of the dose absorbed (oral administration): less than 5%
